Data published in patent US12648948B2, “Methods and compositions for treating cancer” (UNITED STATES GOVERNMENT AS REPRESENTED BY THE DEPARTMENT …, priority 2017, dated 2026).

Legend:
[1] = test system: EGFR; experiment: Western blot, EGFR activation in U87EGFRwt cells; assay type: cell-based, human; details: serum starved, cetuximab overnight, EGF 50 ng/ml 15 min
Method: Western blot analysis was performed according to standard protocols.
Reagents: Recombinant human TNF and EGF were obtained from Peprotech (Rocky Hill, NJ). Erlotinib and XL765 was purchased from SelleckChem (Houston, TX). Afatinib was bought from AstaTech, Inc. (Bristol, PA). Axl inhibitor R428, ERK inhibitor (U0126) and thalidomide were from Cayman Chemical (Ann Arbor, MI). Enbrel (Etanercept) was purchased from Mckesson Medical y (San Francisco CA). The JNK inhibitor SP600125, p38 Inhibitor SB203580, and NF-αB inhibitor BMS-345541 were obtained from EMD Millipore (Billerica, MA). Necrostatin-1 was obtained from Fisher Scientific (Pittsburgh, PA). LPS was purchased from Sigma (St. Louis, MO). Cetuximab was provided by Imclone and used at a concentration of 10 μg/ml overnight.

[2] = test system: ERK; experiment: Western blot, ERK activation (pERK) in glioma cells; details: U87EGFRwt cells, serum starved; cetuximab overnight; EGF 50 ng/ml 15 min

Cetuximab: blocks ligand binding to the EGFR; provided by Imclone
Basal EGFR activation [1]: could be inhibited
Basal ERK activation [2]: could be inhibited
